Here are results for 14 compounds from US20250206721A1, “Prostaglandin Receptor EP2 Antagonists, Derivatives, and Uses Related Thereto” (Emory University, priority 2019, published 2025).

Chains of the proteins cited; added tags and fusions are not shown. Lines headed by an entry give the natural chain unless they say otherwise; changes in a name come on top.
UniProt P43116: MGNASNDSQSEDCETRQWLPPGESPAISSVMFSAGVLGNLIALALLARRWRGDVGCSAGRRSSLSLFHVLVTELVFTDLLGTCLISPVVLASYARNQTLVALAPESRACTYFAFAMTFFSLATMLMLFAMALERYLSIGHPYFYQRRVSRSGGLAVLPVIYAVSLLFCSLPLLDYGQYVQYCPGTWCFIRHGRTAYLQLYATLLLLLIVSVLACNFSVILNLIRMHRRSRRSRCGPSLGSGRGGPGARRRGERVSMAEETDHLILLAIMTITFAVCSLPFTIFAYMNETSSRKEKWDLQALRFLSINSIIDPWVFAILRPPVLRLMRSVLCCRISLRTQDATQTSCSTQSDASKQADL
UniProt P43119: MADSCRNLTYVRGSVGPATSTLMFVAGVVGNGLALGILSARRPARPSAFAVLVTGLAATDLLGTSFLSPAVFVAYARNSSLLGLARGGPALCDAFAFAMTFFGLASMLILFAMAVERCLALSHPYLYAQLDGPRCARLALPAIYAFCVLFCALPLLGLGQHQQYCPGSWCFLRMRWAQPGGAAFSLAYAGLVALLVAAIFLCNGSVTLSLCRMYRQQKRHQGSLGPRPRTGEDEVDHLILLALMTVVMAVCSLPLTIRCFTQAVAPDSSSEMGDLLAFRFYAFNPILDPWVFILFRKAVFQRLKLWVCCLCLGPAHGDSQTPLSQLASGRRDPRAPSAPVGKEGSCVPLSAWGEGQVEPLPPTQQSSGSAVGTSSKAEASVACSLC

In one data set the target is T1, human EP2 receptor (Homo sapiens, UniProt P43116).
T1 construct: expressed in transfected cells
The data set can be described thus: Cell-based cAMP TR-FRET assay, Schild KB on EP2. The conditions noted are these: for Kb: Schild KB, agonist PGE2, antagonist concentration 1 μM, C6G cells expressing human EP2. In general terms: In TR-FRET formats the signal depends on donor and acceptor labels being close together.

The nature of data set [1]: Mouse liver microsomal (MLM) stability. The conditions noted are these: for MLM T½: 1 μM compound, 0.125 mg/mL liver microsomes, NADPH; for fold higher half-life in liver microsomes: 24i vs 20o, 20c vs 20b, 20f vs 20e. A general note: Microsomes from liver hold many membrane-bound enzymes, among them those of drug oxidation.
A further data set has as its target human IP receptor (Homo sapiens, UniProt P43119). The data set can be described thus: Cell-based cAMP TR-FRET assay on IP (agonist iloprost).
Data set [2] in a line: Kinetic aqueous solubility in PBS by nephelometry. The conditions noted are these: PBS buffer (pH 7.4) with 1% DMSO.

With `Cc1[nH]c2ccccc2c1CCNC(=O)c1ccc(-c2ccccc2)nc1` [Compound 8a, N-(2-(2-Methyl-1H-indol-3-yl)ethyl)-6-phenylnicotinamide], the Kb on human EP2 receptor amounted to 23.2 nM. `COc1cccc(-c2ccc(C(=O)NCCc3c(C)[nH]c4ccccc34)cn2)c1` [Compound 8b, 6-(3-Methoxyphenyl)-N-(2-(2-methyl-1H-indol-3-yl)ethyl)nicotinamide] showed a Kb at human EP2 receptor of 9.5 nM. In addition, the “fold improved EP2 potency in comparison to 2a” value on human EP2 receptor (comparator 2a) is 2 fold.

Regarding `COc1ccccc1-c1ccc(C(=O)NCCc2c(C)[nH]c3ccccc23)cn1` [Compound 8c, 6-(2-Methoxyphenyl)-N-(2-(2-methyl-1H-indol-3-yl)ethyl)nicotinamide], the “MLM T½” value in data set [1] is recorded as “very short half-life”. With `Cc1[nH]c2ccccc2c1CCNC(=O)c1ccc(-c2ccccc2O)nc1` [Compound 8d, 6-(2-Hydroxyphenyl)-N-(2-(2-methyl-1H-indol-3-yl)ethyl)nicotinamide], the “MLM T½” value in data set [1] is on record as “very short half-life”. For `Cc1[nH]c2ccccc2c1CCNC(=O)c1ccc(-c2ccccc2F)nc1` [Compound 8e, 6-(2-Fluorophenyl)-N-(2-(2-methyl-1H-indol-3-yl)ethyl)nicotinamide], the Kb on human EP2 receptor was 48.4 nM. Turning to `COc1cc(OC)cc(-c2ccc(C(=O)NCCc3c(C)[nH]c4ccccc34)cn2)c1` [Compound 8g, 6-(3,5-Dimethoxyphenyl)-N-(2-(2-methyl-1H-indol-3-yl)ethyl)nicotinamide], the “MLM T½” value in data set [1] is reported as “very short half-life”. On human EP2 receptor, `COc1cccc(-c2ccc(C(=O)NCCc3c(C)[nH]c4ccccc34)nc2)c1` [Compound 11a, 5-(3-Methoxyphenyl)-N-(2-(2-methyl-1H-indol-3-yl)ethyl)picolinamide] had a Kb of 48.6 nM. The same measure, in the same setting: then `COc1cc(OC)cc(-c2ccc(C(=O)NCCc3c(C)[nH]c4ccccc34)nc2)c1` [Compound 11b, 5-(3,5-Dimethoxyphenyl)-N-(2-(2-methyl-1H-indol-3-yl)ethyl)picolinamide], with 33.6 nM. Turning to `COc1ccccc1-c1ncc(C(=O)NCCc2c(C)[nH]c3ccccc23)cn1` [Compound 14a, 2-(2-Methoxyphenyl)-N-(2-(2-methyl-1H-indol-3-yl)ethyl)pyrimidine-5-carboxamide], the “MLM T½” value in data set [1] is reported as “very short half-life”.

For the compound `Cc1[nH]c2ccccc2c1CCNC(=O)c1cnc(Nc2ccccn2)nc1` [Compound 20a, N-(2-(2-Methyl-1H-indol-3-yl)ethyl)-2-(pyridin-2-ylamino)pyrimidine-5-carboxamide], the Kb at human EP2 receptor worked out at 10.7 nM. Consider `Cc1[nH]c2ccccc2c1CCNC(=O)c1cnc(Nc2cc(F)ccn2)nc1` [Compound 20c, 2-((4-Fluoropyridin-2-yl)amino)-N-(2-(2-methyl-1H-indol-3-yl)ethyl)pyrimidine-5-carboxamide], for which the “fold higher half-life in liver microsomes” value in data set [1] was 2 fold. This compound also showed a Kb at human EP2 receptor of 6.4 nM.

For the compound `Cc1cccc(Nc2ncc(C(=O)NCCc3c(C)[nH]c4ccccc34)cn2)n1` [Compound 20e, N-(2-(2-Methyl-1H-indol-3-yl)ethyl)-2-((6-methylpyridin-2-yl)amino)pyrimidine-5-carboxamide], the Kb on human EP2 receptor was found to be 6.1 nM. On to `Cc1cc(C)nc(Nc2ncc(C(=O)NCCc3c(C)[nH]c4ccc(F)cc34)cn2)c1` [Compound 24a, 2-((4,6-Dimethylpyridin-2-yl)amino)-N-(2-(5-fluoro-2-methyl-1H-indol-3-yl)ethyl)pyrimidine-5-carboxamide], for which the Kb on human IP receptor was > 10000 nM.

In general, Aqueous Solubility refers to the concentration that dissolves in the medium under given conditions. A higher Aqueous Solubility goes with much dissolved substance. For `Cc1cc(C)nc(Nc2ncc(C(=O)NCC(O)c3c(C)[nH]c4ccccc34)cn2)c1` (centres unmarked) [Compound 24i, 2-((4,6-Dimethylpyridin-2-yl)amino)-N-(2-hydroxy-2-(2-methyl-1H-indol-3-yl)ethyl)pyrimidine-5-carboxamide], the “fold higher half-life in liver microsomes” value in data set [1] was determined as 3 fold. Besides, in data set [2], the “Aqueous Solubility” value was 57 µM.
